Tested on: LU-01-0015 (HIP-ALK) patient derived lung-tumor xenografts
Test: LU-01-0015 patient-derived xenograft model (tumor volume, body weight)
Assay type: in vivo, BALB/c nude mice
Conditions: nude mouse xenograft models (LU-01-0015, NCI-H3122), all P ≥ 0.05

With `C[C@@H](Oc1cc(-c2cnn(C3CCNCC3)c2)cnc1N)c1c(Cl)ccc(F)c1Cl` [Crizotinib, reference compound] the “effect on body weight” value was “no effect”.

From PMC10140010 (Investigational New Drugs, 2023)
